In this test the target is αvβ3 (Homo sapiens, UniProt P05106+P06756). In words: Fluorescence polarization binding of FITC-labeled disintegrins to soluble integrin αvβ3. The note with it: native VCN, read-out: binding affinity to αvβ3. The method, then:
The specific activity of iodinated VCN is determined by separation of the material by SDS-PAGE, and counting bands of VCN cut from the gel. […] Further, ^131I-VCN retained essentially 100% radioiodine during dialysis against phosphate buffered saline, pH 7.4, for 15 days. […] Binding kinetics were calculated from the fluorescence anisotropy data generated by steady state binding of FITC-labeled disintegrins to either purified (αvβ3, αvβ5) or recombinant (α5β1) functional human integrins. The dissociation constants for interactions of either CN or VCN with soluble integrins were determined by Scatchard analysis using a non-linear curve fit.
(In general: Fluorescence polarisation rises when a labelled molecule tumbles more slowly, as on binding a larger partner.)

Sequences of proteins named here, by UniProt entry; tags and fusion partners are left off. Residues count along the entry.
UniProt P05106, 27-788: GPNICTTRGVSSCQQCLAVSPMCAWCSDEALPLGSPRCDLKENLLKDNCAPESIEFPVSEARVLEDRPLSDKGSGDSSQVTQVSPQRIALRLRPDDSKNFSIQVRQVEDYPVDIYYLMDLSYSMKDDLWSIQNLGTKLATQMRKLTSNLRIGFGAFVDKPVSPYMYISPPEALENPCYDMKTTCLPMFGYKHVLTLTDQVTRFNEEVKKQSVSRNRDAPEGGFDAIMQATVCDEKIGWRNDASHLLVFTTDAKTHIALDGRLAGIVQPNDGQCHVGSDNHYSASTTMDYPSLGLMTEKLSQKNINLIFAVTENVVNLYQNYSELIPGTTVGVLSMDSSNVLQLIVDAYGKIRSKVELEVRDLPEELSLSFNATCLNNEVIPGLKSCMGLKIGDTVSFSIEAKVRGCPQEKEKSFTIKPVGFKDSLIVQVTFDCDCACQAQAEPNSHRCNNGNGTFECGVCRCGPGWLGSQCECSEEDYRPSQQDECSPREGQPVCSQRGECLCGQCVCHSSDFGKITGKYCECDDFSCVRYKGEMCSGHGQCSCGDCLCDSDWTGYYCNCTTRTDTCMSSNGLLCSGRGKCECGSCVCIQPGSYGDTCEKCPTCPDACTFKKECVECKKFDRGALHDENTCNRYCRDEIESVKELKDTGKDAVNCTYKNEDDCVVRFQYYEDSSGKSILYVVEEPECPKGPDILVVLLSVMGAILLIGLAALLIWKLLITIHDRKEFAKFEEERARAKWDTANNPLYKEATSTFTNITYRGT
UniProt P06756, 891-1048 partner limits assumed: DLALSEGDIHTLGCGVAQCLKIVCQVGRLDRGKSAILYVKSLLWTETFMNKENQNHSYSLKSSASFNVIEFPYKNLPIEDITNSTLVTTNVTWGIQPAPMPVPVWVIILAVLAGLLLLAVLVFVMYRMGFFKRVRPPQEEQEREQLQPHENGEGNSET
UniProt P06756, 31-889 limits assumed: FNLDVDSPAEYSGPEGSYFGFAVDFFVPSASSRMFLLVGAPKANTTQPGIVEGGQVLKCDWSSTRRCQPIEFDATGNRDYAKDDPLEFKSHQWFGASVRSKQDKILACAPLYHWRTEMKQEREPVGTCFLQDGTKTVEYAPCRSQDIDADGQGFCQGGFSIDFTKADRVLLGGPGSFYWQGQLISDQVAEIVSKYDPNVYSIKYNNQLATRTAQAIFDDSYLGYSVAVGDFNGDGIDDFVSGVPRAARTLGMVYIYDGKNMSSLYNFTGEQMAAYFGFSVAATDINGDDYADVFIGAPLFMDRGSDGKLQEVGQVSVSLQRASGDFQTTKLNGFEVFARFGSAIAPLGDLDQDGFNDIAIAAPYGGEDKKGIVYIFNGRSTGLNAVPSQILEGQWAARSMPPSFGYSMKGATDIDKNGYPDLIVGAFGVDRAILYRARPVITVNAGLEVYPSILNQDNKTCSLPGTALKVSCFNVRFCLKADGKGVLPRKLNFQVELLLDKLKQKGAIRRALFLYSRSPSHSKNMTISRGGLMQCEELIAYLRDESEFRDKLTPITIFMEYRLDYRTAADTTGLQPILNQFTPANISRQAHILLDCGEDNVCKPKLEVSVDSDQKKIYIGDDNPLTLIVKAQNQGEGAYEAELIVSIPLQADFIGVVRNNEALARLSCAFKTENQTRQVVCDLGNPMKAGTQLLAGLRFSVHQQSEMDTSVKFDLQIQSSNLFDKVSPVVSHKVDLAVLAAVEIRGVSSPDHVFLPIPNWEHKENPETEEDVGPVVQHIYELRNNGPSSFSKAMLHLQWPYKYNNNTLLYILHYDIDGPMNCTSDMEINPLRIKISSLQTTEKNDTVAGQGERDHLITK

Consider vicrostatin [VCN], for which the Kd is approximately 7 nM.
